# Literature values as cited in article PMC7238120, “Strong and Selective Inhibitory Effects of the Biflavonoid Selamariscina A against CYP2C8 and CYP2C9 Enzyme Activities in Human Liver Microsomes” (Pharmaceutics, 2020).
# Amino acid sequences for entries named in this document (tags omitted).
# UniProt P11712, whole entry: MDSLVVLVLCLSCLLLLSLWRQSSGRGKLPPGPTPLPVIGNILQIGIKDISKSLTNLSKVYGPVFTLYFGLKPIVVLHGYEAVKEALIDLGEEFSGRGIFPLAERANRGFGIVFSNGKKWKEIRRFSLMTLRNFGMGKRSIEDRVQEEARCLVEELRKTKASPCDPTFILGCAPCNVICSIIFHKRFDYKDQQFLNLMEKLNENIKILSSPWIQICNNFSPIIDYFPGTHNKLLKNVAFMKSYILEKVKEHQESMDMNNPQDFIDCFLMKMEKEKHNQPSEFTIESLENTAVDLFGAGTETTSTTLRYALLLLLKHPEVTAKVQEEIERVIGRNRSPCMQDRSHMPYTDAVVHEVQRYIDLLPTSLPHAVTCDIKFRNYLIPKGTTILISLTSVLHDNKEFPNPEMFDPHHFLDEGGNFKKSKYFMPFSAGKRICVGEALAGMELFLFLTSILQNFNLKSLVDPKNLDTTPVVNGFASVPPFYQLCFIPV
# Biological target: CYP2C9 (Homo sapiens, UniProt P11712)
# Details: read-out: Ki, CYP2C9, known inhibitor; cited from earlier work
structure (smiles),measurement,value
OC(Cn1cncn1)(Cn1cncn1)c1ccc(F)cc1F [fluconazole],Ki,280 nM
